Among the data in patent US9394282B2, “Pyrazole carboxamides as Janus kinase inhibitors” (Merck Sharp & Dohme Corp., priority 2011, dated 2016) are IC50 values, retold here.

The chains behind the UniProt entries cited, without tags or fusion partners. Residues count along the entry.
UniProt P23458, 875-1153: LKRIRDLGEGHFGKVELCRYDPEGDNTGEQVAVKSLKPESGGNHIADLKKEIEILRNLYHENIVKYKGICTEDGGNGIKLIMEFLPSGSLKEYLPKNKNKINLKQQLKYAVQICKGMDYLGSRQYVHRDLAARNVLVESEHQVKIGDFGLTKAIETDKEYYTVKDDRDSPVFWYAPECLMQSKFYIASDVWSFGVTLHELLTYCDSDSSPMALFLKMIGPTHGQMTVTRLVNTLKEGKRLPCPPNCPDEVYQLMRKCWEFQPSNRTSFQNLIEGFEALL
UniProt O60674, 849-1124: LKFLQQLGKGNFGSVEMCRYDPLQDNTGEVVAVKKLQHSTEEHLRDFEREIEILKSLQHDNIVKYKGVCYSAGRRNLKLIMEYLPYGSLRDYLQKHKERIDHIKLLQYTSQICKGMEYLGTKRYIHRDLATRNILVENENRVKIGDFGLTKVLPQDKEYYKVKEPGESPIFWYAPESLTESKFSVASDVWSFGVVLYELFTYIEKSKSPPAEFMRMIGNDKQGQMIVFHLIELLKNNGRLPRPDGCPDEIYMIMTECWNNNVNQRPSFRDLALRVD

The first assay concerns the target JAK1 (Homo sapiens (Human), UniProt P23458). Briefly: Jak biochemical HTRF assay, JAK1. Conditions: recombinant purified GST-tagged catalytic domain; HTRF format; [ATP] 31.8 μM. An excerpt: (§1) Jak Biochemical HTRF Assay Protocol
(§2) Subsequent reagent additions employed an Agilent Bravo.
For the compound `CC1(COC(=O)N2CC[C@@H](n3cc(C(N)=O)c(Nc4ccc(F)cc4)n3)[C@H](C#N)C2)CC1` (racemic) [Example 5-9, (1-methylcyclopropyl)methyl (3R,4R and 3S,4S)-4-{4-carbamoyl-3-[(4-fluorophenyl)amino]-1H-pyrazol-1-yl}-3-cyanopiperidine-1-carboxylate], the IC50 was found to be 46 nM.
Same read-out and setting: the same measure for `CC(C)COC(=O)N1CC[C@@H](n2cc(C(N)=O)c(Nc3ccc(F)cc3)n2)[C@H](C#N)C1` (racemic) [Example 5-10, 2-methylpropyl (3R,4R and 3S,4S)-4-{4-carbamoyl-3-[(4-fluorophenyl)amino]-1H-pyrazol-1-yl}-3-cyanopiperidine-1-carboxylate]: 33 nM.
The same measure, in the same setting: to `N#C[C@@H]1CN(C(=O)OCc2ccccc2)CC[C@H]1n1cc(C(N)=O)c(Nc2ccc(F)cc2)n1` (racemic) [Example 5-12, benzyl (3R,4R and 3S,4S)-4-{4-carbamoyl-3-[(4-fluorophenyl)amino]-1H-pyrazol-1-yl}-3-cyanopiperidine-1-carboxylate] belongs 15 nM.
Same read-out and setting: to `N#C[C@@H]1CN(C(=O)OCCC2CC2)CC[C@H]1n1cc(C(N)=O)c(Nc2ccc(F)cc2)n1` (racemic) [Example 5-14, 2-cyclopropylethyl (3R,4R and 3S,4S)-4-{4-carbamoyl-3-[(4-fluorophenyl)amino]-1H-pyrazol-1-yl}-3-cyanopiperidine-1-carboxylate] belongs 38 nM.

For a further assay, the target named is JAK2 (Homo sapiens (Human), UniProt O60674). Briefly: Jak biochemical HTRF assay, JAK2. The settings on record: recombinant purified GST-tagged catalytic domain; HTRF format; [ATP] 8.5 μM.
Source text: as §1, §2
`N#C[C@H]1CCOC[C@@H]1n1cc(C(N)=O)c(Nc2ccc(Cl)cc2)n1` (single isomer, unassigned) [Example 9-4, 3-[(4-chlorophenyl)amino]-1-[(3R,4S or 3S,4R)-4-cyanotetrahydro-2H-pyran-3-yl]-1H-pyrazole-4-carboxamide]: the IC50 stood at 3 nM.
`N#C[C@@H]1CCOC[C@H]1n1cc(C(N)=O)c(Nc2ccc(Cl)cc2)n1` (single isomer, unassigned) [Example 9-5, 3-[(4-chlorophenyl)amino]-1-[(3S,4R or 3R,4S)-4-cyanotetrahydro-2H-pyran-3-yl]-1H-pyrazole-4-carboxamide]: the IC50 turned out to be 61 nM.
The same measure, in the same setting: the same measure for `N#C[C@H]1CCOC[C@@H]1n1cc(C(N)=O)c(Nc2ccc(Cl)c(Cl)c2)n1` (single isomer, unassigned) [Example 9-10, 1-[(3R,4S or 3S,4R)-4-cyanotetrahydro-2H-pyran-3-yl]-3-[(3,4-dichlorophenyl)amino]-1H-pyrazole-4-carboxamide]: 245 nM; for `N#C[C@@H]1CCOC[C@H]1n1cc(C(N)=O)c(Nc2ccc(Cl)c(Cl)c2)n1` (single isomer, unassigned) [Example 9-11, 1-[(3S,4R or 3R,4S)-4-cyanotetrahydro-2H-pyran-3-yl]-3-[(3,4-dichlorophenyl)amino]-1H-pyrazole-4-carboxamide]: 5 nM; for `N#C[C@H]1CCOC[C@@H]1n1cc(C(N)=O)c(Nc2ccc(Cl)c(F)c2)n1` (single isomer, unassigned) [Example 9-12, 3-[(4-chloro-3-fluorophenyl)amino]-1-[(3R,4S or 3S,4R)-4-cyanotetrahydro-2H-pyran-3-yl]-1H-pyrazole-4-carboxamide]: 121 nM.
On the same count and under the same terms, the same measure for `N#C[C@@H]1CCOC[C@H]1n1cc(C(N)=O)c(Nc2ccc(Cl)c(F)c2)n1` (single isomer, unassigned) [Example 9-13, 3-[(4-chloro-3-fluorophenyl)amino]-1-[(3S,4R or 3R,4S)-4-cyanotetrahydro-2H-pyran-3-yl]-1H-pyrazole-4-carboxamide]: 4 nM; for `N#C[C@H]1CCOC[C@@H]1n1cc(C(N)=O)c(Nc2ccc(C(F)(F)F)nc2)n1` (single isomer, unassigned) [Example 9-14, 1-[(3R,4S or 3S,4R)-4-cyanotetrahydro-2H-pyran-3-yl]-3-{[6-(trifluoromethyl)pyridin-3-yl]amino}-1H-pyrazole-4-carboxamide]: 4 nM; for `N#C[C@@H]1CCOC[C@H]1n1cc(C(N)=O)c(Nc2ccc(C(F)(F)F)nc2)n1` (single isomer, unassigned) [Example 9-15, 1-[(3S,4R or 3R,4S)-4-cyanotetrahydro-2H-pyran-3-yl]-3-{[6-(trifluoromethyl)pyridin-3-yl]amino}-1H-pyrazole-4-carboxamide]: 157 nM.
On the same count and under the same terms, the same measure for `N#C[C@@H]1CCOC[C@H]1n1cc(C(N)=O)c(Nc2cnc3cc(Cl)ccc3c2)n1` (single isomer, unassigned) [Example 9-21, 3-[(7-chloroquinolin-3-yl)amino]-1-[(3S,4R or 3R,4S)-4-cyanotetrahydro-2H-pyran-3-yl]-1H-pyrazole-4-carboxamide]: 118 nM; for `N#C[C@H]1CCOC[C@@H]1n1cc(C(N)=O)c(Nc2cnc3cc(Cl)ccc3c2)n1` (single isomer, unassigned) [Example 9-22, 3-[(7-chloroquinolin-3-yl)amino]-1-[(3R,4S or 3S,4R)-4-cyanotetrahydro-2H-pyran-3-yl]-1H-pyrazole-4-carboxamide]: 5 nM.
Turning to `COC(C)(C)c1ccc(Nc2nn([C@H]3COCC[C@@H]3C#N)cc2C(N)=O)cc1` (single isomer, unassigned) [Example 9-23, 1-[(3R,4S or 3S,4R)-4-cyanotetrahydro-2H-pyran-3-yl]-3-{[4-(1-methoxy-1-methylethyl)phenyl]amino}-1H-pyrazole-4-carboxamide], the IC50 worked out at 17 nM.
On the same count and under the same terms, the same measure for `COC(C)(C)c1ccc(Nc2nn([C@@H]3COCC[C@H]3C#N)cc2C(N)=O)cc1` (single isomer, unassigned) [Example 9-25, 1-[(3S,4R or 3R,4R)-4-cyanotetrahydro-2H-pyran-3-yl]-3-{[4-(1-methoxy-1-methylethyl)phenyl]amino}-1H-pyrazole-4-carboxamide]: 0.4 nM; for `N#C[C@H]1CCOC[C@@H]1n1cc(C(N)=O)c(Nc2ccccc2)n1` (single isomer, unassigned) [Example 9-37, 1-[(3S,4R or 3R,4S)-4-cyanotetrahydro-2H-pyran-3-yl]-3-(phenylamino)-1H-pyrazole-4-carboxamide]: 67 nM; for `N#C[C@@H]1CCOC[C@H]1n1cc(C(N)=O)c(Nc2ccccc2)n1` (single isomer, unassigned) [Example 9-38, 1-[(3R,4S or 3S,4R)-4-cyanotetrahydro-2H-pyran-3-yl]-3-(phenylamino)-1H-pyrazole-4-carboxamide]: 3 nM.
Consider `N#C[C@@H]1CS(=O)(=O)CC[C@H]1n1cc(C(N)=O)c(Nc2ccc(F)cc2)n1` (single isomer, unassigned) [Example 13-1, 1-((3R,4R or 3S,4S)-3-cyano-1,1-dioxidotetrahydro-2H-thiopyran-4-yl)-3-((4-fluorophenyl)amino)-1H-pyrazole-4-carboxamide], for which the IC50 is > 1500 nM.
On the same count and under the same terms, the same measure for `N#C[C@@H]1CS(=O)(=O)CC[C@H]1n1cc(C(N)=O)c(Nc2ccc(F)cc2)n1` (single isomer, unassigned) [Example 13-2, 1-((3R,4R or 3S,4S)-3-cyano-1,1-dioxidotetrahydro-2H-thiopyran-4-yl)-3-((4-fluorophenyl)amino)-1H-pyrazole-4-carboxamide]: 60 nM.
